This is a selection; strong and weak results do not stand in their true shares. The source made the active and inactive calls.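 How the source made its calls: active means inhibition above about 40% at 20 µM (limit read from the data); inactive means the rest.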

The chains behind the UniProt entries cited, without tags or fusion partners.
UniProt P35414, whole entry: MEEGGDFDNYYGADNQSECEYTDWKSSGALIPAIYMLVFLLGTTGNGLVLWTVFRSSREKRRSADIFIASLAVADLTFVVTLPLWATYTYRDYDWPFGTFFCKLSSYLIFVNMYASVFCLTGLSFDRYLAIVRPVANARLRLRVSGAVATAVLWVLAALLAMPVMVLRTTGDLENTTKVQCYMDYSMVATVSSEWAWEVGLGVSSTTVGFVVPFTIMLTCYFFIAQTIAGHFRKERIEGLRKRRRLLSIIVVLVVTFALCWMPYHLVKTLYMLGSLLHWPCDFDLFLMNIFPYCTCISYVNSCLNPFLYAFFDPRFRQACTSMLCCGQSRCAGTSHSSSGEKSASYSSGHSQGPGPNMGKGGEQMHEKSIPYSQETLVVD

The assay concerns the target Apelin receptor (Homo sapiens) (UniProt P35414). The experiment in a line: antagonists of human apelin receptor APJ, primary screen, CHO-K1 cells, beta-arrestin complementation, luminescence (AID 2521).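 Further: cells challenged with 10 nM apelin-13 agonist together with compound; plate controls were apelin-13 plus DMSO wells for no effect and DMSO wells lacking apelin-13 for full effect.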 The conditions noted are these: at 20 µM, active compounds read high.
For orientation: inhibition means the relative decrease from the control value, in per cent. As for `CCCOc1ccc(C)cc1CN(CCCl)CCCl`, the inhibition was inactive: -1.04%.
In the case of `CN1CCC(Nc2ccc(Cl)cc2)CC1`, the inhibition is inactive: 12.1%.
As to `CCC(CO)(C(=O)OC1CN2CCC1CC2)c1ccccc1` (configuration not stated), the inhibition is inactive: -0.274%.
Consider `COc1cc(OC)cc(C(=O)NCC2(N3CCOCC3)CCCCC2)c1`, for which the inhibition was inactive: 14.3%.
Next, `COc1cccc(C(=O)N(c2cc(C)cc(C)c2)C2CCN(C(=O)OC(C)(C)C)CC2)c1`: inactive: -16.2%; `CCCOc1ccc(C(=O)NCC2(N(C)C)CCCCC2)cc1`: inactive: -7.25%.
`CC(C)(C)OC(=O)N1CCC(Nc2ccccc2)CC1`: the inhibition is inactive: 6.36%.
Turning to `O=C(O)C1(Nc2ccccc2)CCN(Cc2ccccc2)CC1`, the inhibition is inactive: 0.587%.
Next, `CCOc1ncccc1C(=O)NCC1(N2CCOCC2)CCCCC1`: inactive: 4.24%.
Take `CN1CCC(Nc2ccc(F)c(Cl)c2)CC1`: the inhibition is inactive: -8.55%.
`O=C(NCC1(N2CCCCC2)CCCCC1)c1ccco1`: the inhibition was inactive: 9.06%.
Regarding `CN(C)c1ccc(C(=O)NCC2(N3CCCCC3)CCCCC2)cc1`, the inhibition was inactive: 15.2%.
Regarding `CCN1CCC(Nc2cccc(F)c2)CC1`, the inhibition is inactive: 0.659%.
For the compound `Cc1ccc(C(=O)NCC2(N3CCCCC3)CCCCC2)o1`, the inhibition is inactive: -10%.
Turning to `Fc1ccccc1NC1CCN(Cc2ccccc2)CC1`, the inhibition is inactive: -13.3%.
As to `COc1cc(OC)cc(C(=O)NCC2(N3CCCCC3)CCCCC2)c1`, the inhibition is inactive: 9.78%.
As to `c1ccc(CN2CCC(Nc3ccccc3)CC2)cc1`, the inhibition was inactive: 9.09%.
On to `CCCN1CCC(Nc2cc(OC)cc(OC)c2)CC1`, for which the inhibition is inactive: -15.8%.
With `CN(C)C1(CNC(=O)c2cccc(C#N)c2)CCCCC1`, the inhibition was inactive: -12.8%.
Regarding `CC(C)(C)OC(=O)N1CCC(N(C(=O)c2ccccc2)c2ccc(Cl)cc2)CC1`, the inhibition was inactive: 2.63%.
Regarding `N#Cc1ccc(C(=O)NCC2(N3CCCCC3)CCCCC2)cc1`, the inhibition was inactive: 5.37%.
For the compound `CCc1cc(C(=O)NCC2(N3CCCCC3)CCCCC2)sc1C`, the inhibition is inactive: 22.8%.
Consider `O=C(OC1CN2CCC1CC2)C1c2ccccc2C=Cc2ccccc21` (configuration not stated), for which the inhibition was inactive: -8.9%.
With `N/C(=N\O)c1c(N)no[n+]1[O-]`, the inhibition was inactive: -0.00711%.
Take `CCOC(=O)N1CCC(Nc2ccc(C)cc2)CC1`: the inhibition was inactive: 18.2%.
On to `COc1ccc(C(=O)NCC2(N3CCOCC3)CCCCC2)cc1OC`, for which the inhibition is inactive: 6.5%.
For `O=C(NCC1(N2CCOCC2)CCCCC1)c1cc(Br)ccc1Cl`, the inhibition is inactive: 7.88%.
Consider `COc1cc(C(=O)NCC2(N3CCOCC3)CCCCC2)cc(OC)c1C`, for which the inhibition is inactive: -4.15%.
Regarding `CN1CCC(Nc2cccc(F)c2)CC1`, the inhibition is inactive: 14.9%.
Next, `O=C(NCC1(N2CCCCC2)CCCCC1)c1cncc(Br)c1`: inactive: 9.66%; `COc1cc(OC)c(C(=O)NCC2(N(C)C)CCCCC2)cc1OC`: inactive: 18.4%; `O=C(NCC1(N2CCOCC2)CCCCC1)c1cc(F)c(F)cc1Cl`: inactive: 0.0582%.
`COc1ccc(CN(CCCl)CCCl)cc1Cl`: the inhibition was inactive: 9.16%.
Next, `CN(C)c1cccc(C(=O)NCC2(N3CCCCC3)CCCCC2)c1`: inactive: -3.61%.
Next, `CC(C)c1ccc(NC2CCN(C(=O)OC(C)(C)C)CC2)cc1`: inactive: 8.64%; `CN1CCN(CCOC(=O)C(O)(c2ccccc2)c2ccccc2)CC1`: inactive: 2.61%; `COc1ccc(NC2CCN(C(=O)OC(C)(C)C)CC2)cc1`: inactive: 3.94%.
As to `CC(C)c1ccc(C(=O)NCC2(N3CCOCC3)CCCCC2)cc1`, the inhibition was inactive: 9.74%.
In the case of `COc1cc(C(=O)NCC2(N3CCCCC3)CCCCC2)ccc1OC(F)F`, the inhibition is inactive: -1.83%.
Regarding `O=C(NCC1(N2CCOCC2)CCCCC1)c1cc(=O)[nH]c2ccccc12`, the inhibition is inactive: 5.56%.
On to `O=C(NCC1(N2CCCCC2)CCCCC1)c1cccc(C(F)(F)F)c1`, for which the inhibition was inactive: 11%.
Take `CSc1ccc(C(=O)NCC2(N3CCOCC3)CCCCC2)cc1`: the inhibition is inactive: -38.6%.
Next, `O=C(NCC1(N2CCCCC2)CCCCC1)c1cccc([N+](=O)[O-])c1`: inactive: -6.68%; `CCN1CCC(Nc2ccc(Cl)cc2)CC1`: inactive: 7.75%.
Take `N#CC1(Nc2ccccc2)CCN(CCc2ccccc2)CC1`: the inhibition was inactive: 8.23%.
Take `O=C(NCC1(N2CCCCC2)CCCCC1)c1ccc(OC(F)F)cc1`: the inhibition was inactive: -1.14%.
`CCOC(=O)N1CCC(Nc2cccc(C)c2)CC1`: the inhibition was inactive: 4.28%.
As to `Cc1ccc(OCC(C)C)c(CN(CCCl)CCCl)c1`, the inhibition is inactive: 19.9%.
Turning to `CCCCOc1ccc(C(=O)NCC2(N3CCOCC3)CCCCC2)cc1`, the inhibition was inactive: -41.5%.
Next, `O=C(NCC1(N2CCCCC2)CCCCC1)c1ccc(F)cc1`: inactive: -0.322%; `COc1ccc(NC2CCN(CCc3ccccc3)CC2)c(OC)c1`: inactive: -6.13%; `CCOC(=O)N1CCC(Nc2ccc(F)cc2)CC1`: inactive: 17.6%.
`CCOc1ccc(C)cc1CN(CCCl)CCCl`: the inhibition is inactive: -5.25%.
Consider `CCOC(=O)N1CCC(Nc2ccc(OC)cc2)CC1`, for which the inhibition was inactive: 3.66%.
Next, `N#CC1(Nc2ccccc2)CCN(Cc2ccccc2)CC1`: inactive: 1.46%.
Turning to `O=C(NCC1(N2CCCCC2)CCCCC1)c1ccc(Cl)s1`, the inhibition is inactive: 0.919%.
Next, `O=C(OC1CN2CCC1CC2)C1c2ccccc2Oc2ccccc21` (configuration not stated): inactive: 1.2%; `COc1ccc(Cl)cc1C(=O)NCC1(N2CCOCC2)CCCCC1`: inactive: 10.8%.
As to `O=C(NCC1(N2CCOCC2)CCCCC1)c1cc2ccccc2o1`, the inhibition was inactive: 11.4%.
In the case of `O=C(NCC1(N2CCCCC2)CCCCC1)c1ccc(Cl)nc1`, the inhibition is inactive: 9.1%.
With `Cc1cc(C)cc(N(C(=O)c2ccccc2)C2CCN(C(=O)OC(C)(C)C)CC2)c1`, the inhibition was inactive: -3.68%.
Consider `CSc1ccccc1C(=O)NCC1(N2CCCCC2)CCCCC1`, for which the inhibition was inactive: -4.36%.
As for `O=C(NCC1(N2CCCCC2)CCCCC1)c1ccc(=O)[nH]c1`, the inhibition is inactive: 8.6%.
Next, `O=C(NCC1(N2CCCCC2)CCCCC1)c1cccs1`: inactive: 0.293%; `COc1ccc(C(=O)NCC2(N3CCCCC3)CCCCC2)cc1`: inactive: 9.74%.
Next, `COc1ccc(C(=O)NCC2(N3CCCCC3)CCCCC2)c(OC)c1OC`: inactive: 8.36%; `CC(C)(C)OC(=O)N1CCC(N(C(=O)c2ccccc2)c2ccc(F)cc2)CC1`: inactive: 21.4%.

Source of the values: PubChem BioAssay AID2521 (Sanford-Burnham Center for Chemical Genomics, 2010).
